CycPeptMPDB entries from one study

Collected by the curators of CycPeptMPDB (Li et al. 2023) from Townsend et al. 2020, doi:10.26434/chemrxiv.13335941.v1.

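The data file gives no further conditions (lipid, pH, time, direction or concentration), and values from different papers need not be comparable. Other peptides of the study may be missing here. Entries at the database's floor value (log10 P of -10) are not listed.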

PAMPA measures passive passage through an artificial lipid membrane. Values are log10 P with P in cm/s, so -5 is more permeable than -7.

compound,PAMPA (log10 cm/s)
CC(C)C[C@H]1C(=O)N[C@@H](Cc2ccccc2)CC(=O)N2CCC[C@H]2C(=O)N(C)[C@@H](CC(C)C)C(=O)N[C@@H](Cc2ccccc2)C(=O)N2CCC[C@H]2C(=O)N(C)[C@@H](C)C(=O)N1C,-5.23
CC(C)C[C@@H]1NC(=O)[C@H]2CCCN2C(=O)CN(Cc2ccccc2)C(=O)[C@@H](CC(C)C)NC(=O)[C@@H](C)NC(=O)[C@H](Cc2ccccc2)NC1=O,-6.75
CC(C)C[C@@H]1C(=O)N[C@H](CC(C)C)C(=O)N2CCC[C@H]2C(=O)N(C)[C@@H](CC(C)C)C(=O)N[C@@H](Cc2ccccc2)C(=O)N2CCC[C@H]2C(=O)N[C@@H](Cc2ccccc2)CC(=O)N1C,-5.53
CC(C)C[C@@H]1NC(=O)[C@@H](C)NC(=O)[C@H](Cc2ccccc2)NC(=O)[C@H](CC(C)C)N(C)C(=O)[C@H]2CCCN2C(=O)[C@H](CC(C)C)NC1=O,-5.64
CC(C)C[C@@H]1NC(=O)[C@H]2CCCN2C(=O)[C@H](CC(C)C)N(C)C(=O)[C@H](CC(C)C)NC(=O)[C@H](C)N(C)C(=O)[C@H](Cc2ccccc2)NC1=O,-5.04
CC(C)C[C@H]1NC(=O)[C@H]2CCCN2C(=O)[C@H](CC(C)C)N(C)C(=O)[C@@H](CC(C)C)NC(=O)[C@@H](C)N(C)C(=O)[C@H](Cc2ccccc2)NC1=O,-5.20
CC(C)C[C@H]1NC(=O)[C@H]2CCCN2C(=O)C[C@H](Cc2ccccc2)NC(=O)[C@H](CC(C)C)N(C)C(=O)[C@@H](C)N(C)C(=O)[C@@H]2CCCN2C(=O)[C@H](Cc2ccccc2)NC1=O,-6.26
CC(C)C[C@H]1NC(=O)[C@H]2CCCN2C(=O)CN(Cc2ccccc2)C(=O)[C@H](CC(C)C)N(C)C(=O)[C@@H](C)N(C)C(=O)[C@H](Cc2ccccc2)NC1=O,-5.52
CC(C)C[C@@H]1NC(=O)[C@H](C)N(C)C(=O)[C@H](Cc2ccccc2)NC(=O)CN(Cc2ccccc2)C(=O)[C@@H]2CCCN2C(=O)C[C@H](Cc2ccccc2)NC1=O,-5.75
CC(C)C[C@@H]1C(=O)N[C@H](CC(C)C)C(=O)N2CCC[C@H]2C(=O)N(Cc2ccccc2)CC(=O)N[C@@H](Cc2ccccc2)C(=O)N2CCC[C@@H]2C(=O)N[C@@H](C)C(=O)N1C,-5.75
CCCN1CC(=O)N(C)[C@@H](CC(C)C)C(=O)N(C)[C@H](CC(C)C)C(=O)N2CCC[C@H]2C(=O)N[C@@H](CC(C)C)C(=O)N[C@@H](Cc2ccccc2)C1=O,-4.71
CC(C)C[C@@H]1NC(=O)[C@@H]2CCCN2C(=O)C[C@H](Cc2ccccc2)NC(=O)[C@@H](CC(C)C)N(C)C(=O)[C@H](C)NC(=O)[C@H](Cc2ccccc2)NC1=O,-6.28
CC(C)C[C@@H]1C(=O)N(C)[C@@H](CC(C)C)C(=O)N2CCC[C@H]2C(=O)N(C)[C@H](CC(C)C)C(=O)N[C@@H](Cc2ccccc2)C(=O)N[C@H](C)C(=O)N1C,-5.32
CC(C)C[C@@H]1NC(=O)[C@H](C)N(C)C(=O)[C@H](Cc2ccccc2)NC(=O)[C@@H](CC(C)C)NC(=O)[C@@H]2CCCN2C(=O)CN(Cc2ccccc2)C1=O,-5.83
CCCN1CC(=O)N[C@H](CC(C)C)C(=O)N(C)[C@@H](CC(C)C)C(=O)N2CCC[C@H]2C(=O)N[C@H](CC(C)C)C(=O)N[C@@H](Cc2ccccc2)C(=O)N2CCC[C@@H]2C1=O,-5.67
CC(C)C[C@@H]1NC(=O)[C@H]2CCCN2C(=O)[C@H](CC(C)C)NC(=O)[C@H](CC(C)C)N(C)C(=O)[C@@H](C)N(C)C(=O)[C@H](Cc2ccccc2)NC1=O,-5.40
CC(C)C[C@H]1NC(=O)[C@H](CC(C)C)N(C)C(=O)[C@H](C)NC(=O)[C@H](Cc2ccccc2)NC(=O)[C@H](CC(C)C)N(C)C(=O)[C@@H]2CCCN2C1=O,-5.25
CC(C)C[C@@H]1C(=O)N[C@@H](Cc2ccccc2)C(=O)N2CCC[C@H]2C(=O)N[C@@H](Cc2ccccc2)CC(=O)N[C@H](CC(C)C)C(=O)N[C@H](CC(C)C)C(=O)N2CCC[C@@H]2C(=O)N1C,-5.47
CC(C)C[C@@H]1C(=O)N[C@@H](Cc2ccccc2)C(=O)N[C@@H](C)C(=O)N(C)[C@@H](CC(C)C)C(=O)N[C@H](CC(C)C)C(=O)N2CCC[C@@H]2C(=O)N1C,-6.14

Excerpt, the final 2 entries:

compound,PAMPA (log10 cm/s)
CC(C)C[C@@H]1C(=O)N[C@@H](Cc2ccccc2)C(=O)N2CCC[C@H]2C(=O)N[C@@H](Cc2ccccc2)CC(=O)N[C@H](CC(C)C)C(=O)N[C@H](CC(C)C)C(=O)N2CCC[C@@H]2C(=O)N1C,-5.47
CC(C)C[C@@H]1C(=O)N[C@@H](Cc2ccccc2)C(=O)N[C@@H](C)C(=O)N(C)[C@@H](CC(C)C)C(=O)N[C@H](CC(C)C)C(=O)N2CCC[C@@H]2C(=O)N1C,-6.14